# Measurements published in patent US20090280160A1, “PHENYLEPHRINE PHARMACEUTICAL FORMULATIONS AND COMPOSITIONS FOR TRANSMUCOSAL ABSORPTION” (Schering-Plough Healthcare Products, Inc., priority 2007, published 2009).
# Biological target: T1, α1a adrenoreceptor (Homo sapiens, UniProt P35348)
# T1 construct: expressed in transfected cells
# T1 sequence (P35348 1-466): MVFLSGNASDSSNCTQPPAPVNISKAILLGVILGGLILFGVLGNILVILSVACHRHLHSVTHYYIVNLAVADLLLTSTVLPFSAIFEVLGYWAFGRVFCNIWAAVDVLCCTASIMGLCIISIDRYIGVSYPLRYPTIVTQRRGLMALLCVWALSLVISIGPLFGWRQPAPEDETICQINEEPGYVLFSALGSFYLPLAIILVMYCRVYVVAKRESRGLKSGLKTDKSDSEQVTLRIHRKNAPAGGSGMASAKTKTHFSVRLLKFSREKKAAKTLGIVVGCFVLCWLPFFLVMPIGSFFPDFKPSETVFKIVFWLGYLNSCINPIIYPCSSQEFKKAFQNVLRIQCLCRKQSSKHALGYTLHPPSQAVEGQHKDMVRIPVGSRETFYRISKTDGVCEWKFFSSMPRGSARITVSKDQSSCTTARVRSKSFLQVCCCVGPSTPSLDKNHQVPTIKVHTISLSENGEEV
# Assay: Competition binding, [3H]-prazosin, α1a CHO cell membranes
# Details: read-out: Ki, a1a Binding (class symbol)
substance,measurement,value
(R)-PE sulfate,pKi,< 4.00

# pKi: −log10 of the molar value.
